# AlphaSeq binding of Ab-14 heavy chain variants to a spike HR2 peptide

Data: MIT Lincoln Laboratory AlphaSeq set, Li et al. 2023, doi:10.1038/s41467-023-39022-2, as distributed in FLAb.

Target peptide (SARS-CoV-2 spike, HR2 region): PDVDLGDISGINAS

Each scFv is VH, three GGGGS repeats, VL, as in the parent Ab-14, and differs from it in the CDRs of the heavy chain only.
VH: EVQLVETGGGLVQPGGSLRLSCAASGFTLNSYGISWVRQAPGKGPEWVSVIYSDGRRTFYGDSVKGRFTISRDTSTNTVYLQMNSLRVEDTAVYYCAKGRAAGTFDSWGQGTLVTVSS
VL: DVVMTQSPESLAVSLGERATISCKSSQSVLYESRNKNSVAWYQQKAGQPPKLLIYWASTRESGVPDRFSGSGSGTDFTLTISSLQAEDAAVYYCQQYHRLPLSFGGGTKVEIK

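Designed CDR sequences, proposed from the first random library and measured here. Group labels follow the data file (Ctrl: baseline library sampled from a position-specific scoring matrix, with some repeated check sequences; Rand: our label for a block that the file lists under HC and that is probably the random mutants of the ten best first-round binders; En: ensemble of fine-tuned language models; GP: Gaussian process model; GPLM: also part of the Gaussian process libraries; HC: hill climbing; Gen: genetic algorithm; Gibbs: Gibbs sampling; a sequence that several methods proposed may carry one label only). The assay is AlphaSeq: two haploid yeast populations carry antibody and antigen on their surface. Binding brings cells together so that they mate, and sequencing counts the barcode pairs among the diploids. The ratio of observed to expected reads was calibrated, replicate by replicate, on BCL2-family standards whose Kd was known from biolayer interferometry. Each pool was mated in six replicate cultures.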

Positions count from residue 1 of the parent VH; T28S puts S in place of T. This list holds designs with at most six substitutions. Affinities are written as log10 Kd with Kd in nM; a lower number is a better binder. Replicates are averaged; those with no signal do not enter the mean. "nd" marks a missing value. The strain was present, yet no cells mated with the target were sequenced in any replicate, which points to weak or no binding. Three control strains display no target. For all heavy chain designs, 1% of the pairings with them gave a signal, with a median of 2.08 and one signal in twenty below 0.84, so weak values seen in few replicates may be background. In the paper, a design with two or fewer of six values counts as a poor binder. Values of this round are not directly comparable with the first-round values of the same sequences.

* T28S G61A R100H S107N [GPLM_Gen]: 1.28 (4 of 6 replicates)
* L29R G61E R100Q [Ctrl]: nd (0 of 6 replicates)
* T28E S53A A101T S107K [GP_Gibbs]: -0.19 (6 of 6 replicates)
* T28V A101T [GPLM_Gen]: 1.64 (6 of 6 replicates)
* T28D G61S S63Q R100N [GP_Gen]: 0.88 (6 of 6 replicates)
* F27R G99L A101Y D106N [Ctrl]: nd (0 of 6 replicates)
* T28F S31E G61A A101T [GP_Gibbs]: 0.31 (6 of 6 replicates)
* R100K A101E S107L [GPLM_Gibbs]: 0.58 (6 of 6 replicates)
* N30S [Ctrl]: 2.38 (5 of 6 replicates)
* S31D R56K G61S S107D [Ctrl]: 0.53 (6 of 6 replicates)
* T28D S31M F59S G61H D106P S107M [Ctrl]: nd (0 of 6 replicates)
* A102V S107T [Ctrl]: 1.36 (5 of 6 replicates)
* F27A T28W S31E [Ctrl]: 2.77 (3 of 6 replicates)
* T28D S63R A101E [GP_Gen]: 0.64 (6 of 6 replicates)
* S31E R100V [Ctrl]: 0.31 (6 of 6 replicates)
* T28I G61D R100Q A101L [Rand]: 1.18 (4 of 6 replicates)
* G26Y N30E S53A D106K [GP_HC]: nd (0 of 6 replicates)
* T28C S31E A101I D106S S107Q [Ctrl]: nd (0 of 6 replicates)
* R56H K65S R100N D106V [Ctrl]: nd (0 of 6 replicates)
* T28N G61Q S63R R100Q [GP_Gibbs]: 2.66 (2 of 6 replicates)
* T28D A101E S107K [GPLM_Gibbs]: 0.13 (6 of 6 replicates)
* R56K G61S R100Q S107V [GP_Gibbs]: 0.29 (6 of 6 replicates)
* T28S S63N A101I [GP_Gen]: 1.42 (6 of 6 replicates)
* T28E S31D R100K A101E S107T [GP_Gibbs]: 3.21 (2 of 6 replicates)
* N30D S31L A101L [Ctrl]: 0.29 (6 of 6 replicates)
* G26S S53A [GPLM_Gen]: 0.98 (6 of 6 replicates)
* S31E A101V S107T [GPLM_Gen]: -0.01 (6 of 6 replicates)
* T28E S53A R100Q A101T [GP_Gen]: -0.07 (6 of 6 replicates)
* G61S R100H A101V A102G [GP_HC]: 1.32 (6 of 6 replicates)
* G26R F27E N30W [Ctrl]: nd (0 of 6 replicates)
* S31Q Y52L F59A G61S T104F F105T [Rand]: nd (0 of 6 replicates)
* D54G G61S A102G G103N [Rand]: nd (0 of 6 replicates)
* T28S S31E S63W A101T [GPLM_Gen]: 0.82 (6 of 6 replicates)
* S31E S35G G99M G103V S107Q [Rand]: nd (0 of 6 replicates)
* T28S R100K S107K [GPLM_Gen]: 1.39 (6 of 6 replicates)
* S31E R100C A101V S107Q [GP_HC]: 1.01 (3 of 6 replicates)
* S31E A101T S107E [GPLM_Gen]: -0.01 (6 of 6 replicates)
* T28V S31D A101H [GPLM_HC]: 2.05 (4 of 6 replicates)
* L29I A101S D106S [Ctrl]: nd (0 of 6 replicates)
* T28S S31E S53A G61A R100E S107Q [En_HC]: -0.50 (6 of 6 replicates)
* S31D G61A D106K [GPLM_HC]: nd (0 of 6 replicates)
* K65R T104Q D106P [Ctrl]: nd (0 of 6 replicates)
* S31D R56K A101T D106W [GP_HC]: nd (0 of 6 replicates)
* R56V G61S R100K A102G [GP_HC]: 1.83 (5 of 6 replicates)
* G61V [Ctrl]: 1.33 (1 of 6 replicates)
* T28S S31E R100Q S107D [GPLM_Gen]: 0.29 (6 of 6 replicates)
* T28Q N30D S31T F59A T104D S107M [Ctrl]: nd (0 of 6 replicates)
* T28S S31E F59M S107T [GP_Gibbs]: 0.52 (6 of 6 replicates)
* R56K S63A A101T [GPLM_Gibbs]: 1.52 (6 of 6 replicates)
* L29I S31D F59Q G61I [Rand]: 1.69 (5 of 6 replicates)
* A101T S107T [GPLM_Gen]: 0.98 (4 of 6 replicates)
* T28S G61S R100W [GPLM_Gen]: 0.55 (6 of 6 replicates)

8 of these entries, quoted again:

changes,group,"mean, log10 nM",detected
T28S G61S R100W,GPLM_Gen,0.55,6/6
S31E S35G G99M G103V S107Q,Rand,nd,0/6
T28D G61S S63Q R100N,GP_Gen,0.88,6/6
D54G G61S A102G G103N,Rand,nd,0/6
L29R G61E R100Q,Ctrl,nd,0/6
T28D S31M F59S G61H D106P S107M,Ctrl,nd,0/6
T28E S53A A101T S107K,GP_Gibbs,-0.19,6/6
S31D R56K G61S S107D,Ctrl,0.53,6/6